Amino acid sequences for entries named in this document (tags omitted). Residues count along the entry.
UniProt P00489, 2-843 limits assumed: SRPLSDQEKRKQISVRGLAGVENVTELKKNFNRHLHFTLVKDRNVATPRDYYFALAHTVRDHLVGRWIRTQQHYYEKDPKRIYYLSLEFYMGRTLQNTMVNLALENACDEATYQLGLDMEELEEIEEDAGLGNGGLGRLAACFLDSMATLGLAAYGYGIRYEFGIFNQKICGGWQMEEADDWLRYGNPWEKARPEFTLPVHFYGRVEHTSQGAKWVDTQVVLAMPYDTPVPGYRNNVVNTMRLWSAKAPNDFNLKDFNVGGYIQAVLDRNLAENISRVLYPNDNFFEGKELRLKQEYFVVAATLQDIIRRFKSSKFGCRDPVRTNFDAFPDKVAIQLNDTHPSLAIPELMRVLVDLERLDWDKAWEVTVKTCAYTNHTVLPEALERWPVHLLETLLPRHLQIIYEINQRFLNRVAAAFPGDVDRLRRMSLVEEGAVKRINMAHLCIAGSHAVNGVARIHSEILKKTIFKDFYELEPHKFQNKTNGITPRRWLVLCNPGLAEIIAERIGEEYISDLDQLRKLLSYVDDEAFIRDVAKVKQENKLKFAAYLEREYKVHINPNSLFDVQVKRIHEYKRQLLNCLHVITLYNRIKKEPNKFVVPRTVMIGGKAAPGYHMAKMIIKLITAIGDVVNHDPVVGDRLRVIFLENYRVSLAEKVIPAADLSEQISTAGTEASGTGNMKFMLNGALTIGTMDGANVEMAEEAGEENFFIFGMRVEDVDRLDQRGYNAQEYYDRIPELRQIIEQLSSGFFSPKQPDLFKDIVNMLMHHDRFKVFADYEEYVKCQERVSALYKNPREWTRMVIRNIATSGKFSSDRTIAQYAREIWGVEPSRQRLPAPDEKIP

In BindingDB's records for 22325154:

Target: Glycogen phosphorylase, muscle form (Oryctolagus cuniculus, UniProt P00489)
Details: pH 6.8

In the case of `COP(=O)(N[C@@H]1O[C@H](CO)[C@@H](O)[C@H](O)[C@H]1O)OC`, the Ki is reported as 5.9 mM.
